Data taken from patent US7067262B2, “Cell line for the expression of an α2δ2 calcium channel subunit and methods of use” (Warner Lambert Company LLC, priority 2000, dated 2006).

The chains behind the UniProt entries cited, without tags or fusion partners. Where a name states a change or a piece, a line headed by the entry shows the natural chain unless it says otherwise. Residues count along the entry.
UniProt A0A287BIN3, 25-1109: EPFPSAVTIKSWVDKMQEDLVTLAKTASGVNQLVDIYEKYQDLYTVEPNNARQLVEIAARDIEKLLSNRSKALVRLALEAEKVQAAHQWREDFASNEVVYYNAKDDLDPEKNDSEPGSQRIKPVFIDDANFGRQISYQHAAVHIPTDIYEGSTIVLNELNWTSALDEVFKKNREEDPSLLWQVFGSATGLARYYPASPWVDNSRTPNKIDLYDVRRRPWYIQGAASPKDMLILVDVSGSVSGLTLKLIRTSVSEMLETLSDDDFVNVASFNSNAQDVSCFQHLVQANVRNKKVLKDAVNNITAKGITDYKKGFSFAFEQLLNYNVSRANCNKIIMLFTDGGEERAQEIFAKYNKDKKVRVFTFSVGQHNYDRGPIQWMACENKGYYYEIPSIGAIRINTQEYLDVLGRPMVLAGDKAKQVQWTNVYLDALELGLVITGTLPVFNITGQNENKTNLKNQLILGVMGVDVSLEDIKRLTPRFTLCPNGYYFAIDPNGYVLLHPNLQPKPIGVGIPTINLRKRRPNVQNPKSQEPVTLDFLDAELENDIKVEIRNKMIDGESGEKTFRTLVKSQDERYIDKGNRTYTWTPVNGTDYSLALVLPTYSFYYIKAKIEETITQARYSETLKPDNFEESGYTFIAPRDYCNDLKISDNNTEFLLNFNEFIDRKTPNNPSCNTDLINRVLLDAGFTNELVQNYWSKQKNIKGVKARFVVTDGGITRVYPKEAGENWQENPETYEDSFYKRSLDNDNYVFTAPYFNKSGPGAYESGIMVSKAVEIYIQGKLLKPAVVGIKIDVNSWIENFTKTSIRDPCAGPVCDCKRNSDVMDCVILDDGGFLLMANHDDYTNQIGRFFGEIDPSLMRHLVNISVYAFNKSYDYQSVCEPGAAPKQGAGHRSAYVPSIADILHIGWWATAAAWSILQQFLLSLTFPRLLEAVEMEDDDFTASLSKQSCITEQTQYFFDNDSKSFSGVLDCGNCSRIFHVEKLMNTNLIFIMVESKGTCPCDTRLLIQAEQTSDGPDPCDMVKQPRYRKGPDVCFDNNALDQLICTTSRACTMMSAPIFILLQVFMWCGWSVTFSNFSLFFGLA

Biological target: T1, porcine α2δ1 (pα2δ1) calcium channel subunit (Sus scrofa, UniProt A0A287BIN3)
T1 construct: expressed in transfected cells
Assay: [3H]gabapentin radioligand binding to membranes from HEK293 stable cell line GKS02
Method: Cell culture and transfection. […] The media were supplemented with 50 units/mL penicillin, 50 μg/mL streptomycin, and 10% heat-inactivated fetal bovine serum (FBS), in a humidified incubator with 95% air and 5% CO2 at 37° C. For transient transfection into COS-7 cells, 20 μg of plasmid DNA (vector or the same vector with α2δ insert) was incubated with 30 μL of lipofectamine. The mixture was overlaid onto the cells in 1.5 mL serum-free medium and incubated for 5 hours. Then FBS was added to the dishes to bring the final concentration to 10%. The medium was changed next morning. Forty-eight hours after the transfection, the cells were harvested for membrane preparation. For stable transfection of porcine α2δ1 and human α2δ2 into HEK 293 cells, the same procedure was applied as that for a transient transfection except for that 800 μg/mL G418 (gentacin) was added to the cells 48 hours after the transfection. […] In addition, hosts for expression of α2δ2 protein binding assays can also include eukaryotic expression systems such as yeast, insect cells, and mammalian cells (CHO, COS-7, HEK293, etc.).
Membrane preparation. Membranes were prepared from tissues or cultured cells. […]
Binding assays. […] The filters were dried and counted in a liquid scintillation counter. […]

Q: Which IC50 does the source give for `NCC1(CC(=O)O)CCCCC1` [Gabapentin, 1-(aminomethyl)cyclohexane acetic acid] here?
A: The IC50 was 132 nM.
